Data published in publication PMC9504172.

How the values were obtained:
[1] = target: Rab11 (human (endogenous in HeLa)) (UniProt P62491); assay: proximity ligation; Duolink PLA in fixed, permeabilized HeLa cells (shControl; shSPIN90 knock-down as control); mouse anti-SPIN90 and rabbit anti-Rab11; puncta counted in each cell
GST-Rab11 S25N (human) = GST-Rab11 S25N (human) (UniProt P62491); assay: pull-down; GST-Rab11 proteins immobilized on glutathione-Sepharose beads; lysates of cells expressing GFP-SPIN90 in buffer B (25 mM HEPES, 100 mM NaCl, 5 mM MgCl2, 1% NP-40, 10% glycerol); 2 h at 4 °C; immunoblot with anti-GFP
GST-Rab11 Q70L (human) = GST-Rab11 Q70L (human) (UniProt P62491); assay: as above

| PLA puncta number per cell (puncta per cell) [1] | relative band intensity (normalized to GST-Rab11 WT with SPIN90 FL) (GST-Rab11 S25N (human)) | relative band intensity (normalized to GST-Rab11 WT with SPIN90 FL) (GST-Rab11 Q70L (human)) | Substance |
| --- | --- | --- | --- |
| 20.2 |  |  | SH3 protein interacting with Nck, 90 kDa (SPIN90) (from UniProt Q9NZQ3 1-722) (natural protein) |
|  | 2.11 | 0.93 | GFP-SPIN90 full-length (FL) (from UniProt Q9NZQ3 1-722) (natural protein) |
